# Data from PubChem BioAssay AID2280 (The Scripps Research Institute Molecular Screening Center, 2010).
# Sequences of proteins named here, by UniProt entry; tags and fusion partners are left off.
# UniProt Q17339, whole entry: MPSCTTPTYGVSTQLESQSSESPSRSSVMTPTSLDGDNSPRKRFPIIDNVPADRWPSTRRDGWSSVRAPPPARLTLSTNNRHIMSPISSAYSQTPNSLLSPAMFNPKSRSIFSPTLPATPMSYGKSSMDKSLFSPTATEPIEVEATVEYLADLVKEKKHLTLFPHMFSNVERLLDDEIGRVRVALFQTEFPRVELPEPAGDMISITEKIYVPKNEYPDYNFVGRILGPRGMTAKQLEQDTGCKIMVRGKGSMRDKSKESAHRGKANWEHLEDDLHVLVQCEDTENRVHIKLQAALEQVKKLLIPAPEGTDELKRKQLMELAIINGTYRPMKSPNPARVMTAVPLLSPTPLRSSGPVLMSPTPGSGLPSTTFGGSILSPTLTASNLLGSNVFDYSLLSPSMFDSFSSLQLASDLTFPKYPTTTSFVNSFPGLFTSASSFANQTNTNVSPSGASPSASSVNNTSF
# This is a selection; strong and weak results do not stand in their true shares. Active and inactive are the calls of the source.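 How the source made its calls: active means percent inhibition above a per-plate cutoff, the plate mean of test compounds plus 3 SD (cut at about 30% in these data); inactive means the rest.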
# Target: Female germline-specific tumor suppressor gld-1 (Caenorhabditis elegans) (UniProt Q17339)
# Test: GLD-1/TGE RNA complex disruptors, primary screen, biochemical, fluorescence polarization (AID 2280);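 further: 0% = DMSO wells with GLD-1 and probe and 100% = wells lacking GLD-1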
# Conditions: purified GLD-1 + fluorescein TGE RNA, at 5.96 µM, stronger effect = higher value
row,Compound,inhibition
1,CCC(=O)N(c1ccccc1)C1(COC)CCN(CCn2nnn(CC)c2=O)CC1,inactive: -2.51%
2,CCC(=O)N(c1ccccc1)C1(COC)CCN(CCc2cccs2)CC1,inactive: -3.21%
